Tests used:
Mu-type opioid receptor = Mu-type opioid receptor (Homo sapiens, UniProt P35372); test: DRUGMATRIX: Opiate mu (OP3, MOP) radioligand binding (ligand: [3H] Diprenorphine); conditions: cho-k1
[1] = molecular target: Kappa-type opioid receptor (Homo sapiens, UniProt P41145); test: DRUGMATRIX: Opiate kappa (OP2, KOP) radioligand binding (ligand: [3H] Diprenorphine); conditions: hek293

Chains of the proteins cited; added tags and fusions are not shown. Lines headed by an entry give the natural chain unless they say otherwise; changes in a name come on top.
UniProt P35372, whole entry, looked up: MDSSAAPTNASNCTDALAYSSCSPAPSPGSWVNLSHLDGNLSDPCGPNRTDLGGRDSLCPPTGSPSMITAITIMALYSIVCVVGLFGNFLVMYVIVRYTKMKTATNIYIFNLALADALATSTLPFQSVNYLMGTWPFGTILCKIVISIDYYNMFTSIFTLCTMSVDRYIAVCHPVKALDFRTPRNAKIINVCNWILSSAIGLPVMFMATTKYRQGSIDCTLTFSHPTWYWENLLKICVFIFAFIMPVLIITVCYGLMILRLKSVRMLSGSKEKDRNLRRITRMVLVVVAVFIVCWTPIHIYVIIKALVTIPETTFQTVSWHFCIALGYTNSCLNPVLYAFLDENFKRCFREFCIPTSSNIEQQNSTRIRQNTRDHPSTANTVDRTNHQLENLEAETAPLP
UniProt P41145: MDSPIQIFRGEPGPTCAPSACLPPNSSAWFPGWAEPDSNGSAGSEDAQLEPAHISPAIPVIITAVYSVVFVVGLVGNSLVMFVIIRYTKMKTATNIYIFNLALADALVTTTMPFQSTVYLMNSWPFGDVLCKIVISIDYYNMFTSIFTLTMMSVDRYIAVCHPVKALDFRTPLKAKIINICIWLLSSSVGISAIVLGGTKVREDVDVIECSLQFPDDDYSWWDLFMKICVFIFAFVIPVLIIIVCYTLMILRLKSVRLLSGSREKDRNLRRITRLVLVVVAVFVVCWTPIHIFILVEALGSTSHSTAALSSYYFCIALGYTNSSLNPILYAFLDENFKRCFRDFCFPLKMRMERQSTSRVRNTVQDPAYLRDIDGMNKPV

O=[As][O-].[Na+]
Not Active: IC50 (Mu-type opioid receptor) | Ki (Mu-type opioid receptor) | IC50 [1] | Ki [1]

OC[C@@H](O)[C@@H](O)[C@H](O)[C@H](O)CO
Not Active: IC50 [1] | Ki [1]

O=C(O)C(Cl)(Cl)Cl [TRICHLOROACETIC ACID]
Not Active: IC50 (Mu-type opioid receptor) | Ki (Mu-type opioid receptor) | IC50 [1] | Ki [1]

C=C(C)[C@H]1Cc2c(ccc3c2O[C@@H]2COc4cc(OC)c(OC)cc4[C@@H]2C3=O)O1 [ROTENONE]
Not Active: IC50 (Mu-type opioid receptor) | Ki (Mu-type opioid receptor) | IC50 [1] | Ki [1]

C[N+](C)(C)CCOC(=O)CCC(=O)OCC[N+](C)(C)C.[Cl-].[Cl-]
Not Active: IC50 [1] | Ki [1]

Nc1nc(N)nc(NC2CC2)n1 [CYROMAZINE]
Not Active: IC50 (Mu-type opioid receptor) | Ki (Mu-type opioid receptor) | IC50 [1] | Ki [1]

C[C@@H]1O[C@@H](O[C@H]2C[C@@H](O)[C@]3(CO)[C@H]4[C@H](O)C[C@]5(C)[C@@H](C6=CC(=O)OC6)CC[C@]5(O)[C@@H]4CC[C@]3(O)C2)[C@H](O)[C@H](O)[C@H]1O
Not Active: IC50 (Mu-type opioid receptor) | Ki (Mu-type opioid receptor) | IC50 [1] | Ki [1]

C[C@]12CC[C@H]3[C@@H](CCC4=CC(=O)CC[C@@H]43)[C@@H]1CC[C@@H]2O
Not Active: IC50 (Mu-type opioid receptor) | Ki (Mu-type opioid receptor) | IC50 [1] | Ki [1]

C[C@@]12C(=O)OC(=O)[C@]1(C)[C@H]1CC[C@@H]2O1
Not Active: IC50 (Mu-type opioid receptor) | Ki (Mu-type opioid receptor) | IC50 [1] | Ki [1]

From ChEMBL document CHEMBL1909046, “DrugMatrix in vitro pharmacology data”
